Laboratory results as given in patent US10640802B2 (priority 2012, dated 2020).

Experiments:
[1] = system: AfarsR-gfp biosensor (E. coli strain AW3110 bearing pBADarsR and pACYC184-parsO-gfp); test: In vivo biosensor assay, gfp expression, wild type AfarsR; assay type: cell-based; settings: for biosensor response (gfp derepression): 0.05% arabinose, wild type repressor
[2] = system: arsenic hypersensitive E. coli strain AW3110; settings: LB plate, overnight, FIG. 16C
wild type AfArsR = test: Fluorescence anisotropy: dissociation of wild type AfArsR from DNA by arsenicals; assay type: binding, Acidithiobacillus ferrooxidans; settings: read-out: half-maximal concentration for decrease of anisotropy; wild type AfArsR-DNA complex, FIG. 11A/B
AfArsR C102S mutant = test: Fluorescence anisotropy: dissociation of C102S AfArsR from DNA by arsenicals; assay type: binding, Acidithiobacillus ferrooxidans; settings: slightly higher than the wild type
[3] = system: C102S biosensor co-cultured with Burkholderia sp. MR1; test: Biosensor co-cultured with Burkholderia sp. MR1 (in situ reduction); assay type: cell-based, E. coli / Burkholderia sp. MR1; settings: 2 μM, M9 medium, 8 hours, 0.05% arabinose
[4] = system: C102S mutant biosensor (E. coli strain AW3110); test: In vivo biosensor assay, gfp expression, C102S AfarsR; assay type: cell-based

phenylarsenite
biosensor response (gfp derepression) [1]: much greater | biosensor response (gfp derepression) ([1]; listed as PhAs(III)): proportional to the concentration of the inducer | biosensor response ([1]; 0.5% arabinose): lost due to the toxicity | EC50 ([1]; read-out: apparent half maximal concentration required for induction, 0.2% arabinose, FIG. 6B): 250 nM | induction of gfp expression ([1]; subtoxic concentrations, 0.2% arabinose): induced gfp expression | toxicity, disk test [2]: toxic | EC50 (wild type AfArsR): 300 nM | response of C102S AfArsR (concentration range) (AfArsR C102S mutant): sub-micromolar range | response of biosensor co-cultured with Burkholderia [3]: did respond | biosensor response (gfp derepression) ([4]; 0.05% arabinose, C102S mutant repressor): proportional to the concentration of the inducer | fluorescence of Cys102-lacking biosensor ([4]; FIG. 10): high levels of fluorescence | EC50 ([4]; read-out: apparent half maximal concentration for induction, mutant biosensor, FIG. 13C): 250 nM
